Assay: Selectivity for alpha4beta2 nAChR over alpha3beta4 nAChR

CNC(=O)OCCC(C)N(C)C (stereo unspecified)
Selectivity ratio: 770
